Screening data from PubChem BioAssay.
Most compounds without a hit are left out; they make up all but 1.9% or so of the library.
PglD inh = C. jejuni PglD acetyltransferase inhibitors, primary screen, biochemical, DTNB colorimetric, single point; inhibition, % at 12.5 µM; hit rate 0.098% among 360,000; purified PglD enzyme, DTNB colorimetric CoA detection; in the data active means inhibition above about 16%, passing the limit was not always enough; inconclusive means no clear call, values can overlap the other calls
Yeast UUG start = modulators of yeast start codon fidelity, primary screen, whole organism, S. cerevisiae, single point, plate reader | AID 602363, 2012 | actives 0.13% (n = 350,000) | activity score, % at 18.7 µM | S. cerevisiae UUG-firefly luciferase reporter, luminescence/redox ratio;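 active means replicate mean at a twofold rise or more, about +100% in these data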;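 further: firefly luciferase made from a UUG start codon reports start codon fidelity; reporter light over untreated wells divided by growth signal over untreated wells; some hits fall short of that in this replicate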
ARNT TACC3 PPI = disruptors of ARNT/TACC3 protein interaction, primary screen, biochemical, AlphaScreen, single concentration | Transforming acidic coiled-coil-containing protein 3 (Homo sapiens), Q9Y6A5 | AlphaScreen His-ARNT PAS-B/GST-TACC3 binding, luminescence; TACC3 fragment carries E629A point mutation | inhibition, % at 9.99 µM | hit rate 0.66% among 390,000 | AID 623870, 2012;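 active means mean inhibition of replicates at least 50% and at least half of replicates each reaching 50%; inconclusive means half or more replicates reach 50% but mean below 50%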;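 further: 0% = complete ARNT plus TACC3 wells and 100% = ARNT alone without TACC3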
ERp5 inh = inhibitors of ERp5-driven insulin aggregation, primary screen, biochemical, turbidity, absorbance 650 nm, single point; hit rate 0.05% among 350,000; AID 651711, 2012; inhibition, % at 9.99 µM; 90 min;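 active means mean replicate inhibition above about 25%, with every replicate also reaching it, limit read from the data, passing the limit was not always enough; inconclusive means only one of those two criteria met; inactive means neither criterion met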
PDI turbidity = inhibitors of human PDI, primary screen, biochemical, turbidity, single point, plate reader; PDI insulin aggregation turbidity, A650, 90 min; Protein disulfide-isomerase (Homo sapiens), P07237; hit rate 0.052% among 350,000; inhibition, % at 10 µM;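 active means mean inhibition across replicates of 30% or more, whatever share of single replicates reach that level; inconclusive means mean inhibition below 30% while every single replicate reaches 30%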
FGF22 binding-1 = binders of human FGF22 protein, primary screen, FGF22 synaptogenesis inhibitor project, biophysical, thermal shift, single point | hit rate 1.5% among 340,000 | recombinant FGF22 thermal shift, SYPRO orange fluorescence; percent of sucrose octasulfate shift, DMSO zero | Fibroblast growth factor 22 (Homo sapiens), Q9HCT0 | activity (Tm shift, normalised), % at 9.99 µM;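 active means mean Tm shift, scaled 0 neutral to 100 positive control, at about 1.3% or above, every replicate too, limit read from the data; inconclusive means no clear call, values can overlap the other calls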
FGF22 binding-2 = binders of human FGF22 protein, dose response, FGF22 synaptogenesis inhibitor project, biophysical, thermal shift, cherry-pick retest; shares compounds with FGF22 binding-1; recombinant FGF22 thermal shift, SYPRO orange fluorescence; thermal shift activity, °C (ΔTm) at 38 µM; hit rate 2% among 1,000;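 active means fitted rise in melting shift crosses a set limit at or below the top valid dose tested; inconclusive means flat fit at mid-level activity, or a poor quality fit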
FGF22 TSA DP = binders of human FGF22 protein, dose response, FGF22 synaptogenesis inhibitor project, biophysical, thermal shift, dry powder. shares compounds with FGF22 binding-1. Thermal shift assay, SYPRO orange, melting temperature shift. Tm shift (activity), % at 38 µM. 50 tested, under 10 active. AID 743017, 2013;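 active means compounds whose fitted dose curve of melting temperature shift rises past a set threshold within the tested doses; inconclusive means flat curve at moderate activity, or poor curve fit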
TSA no protein = compound-only thermal shift signal without protein, dose response, artefact control for FGF22 binder project, biochemical, cherry-picked samples, RT-PCR instrument. shares compounds with FGF22 binding-1. compound-only SYPRO orange thermal shift counter-screen, no protein. AC50, µM (titrated, usually from 38 µM). hit rate 2% among 1,000. AID 743019, 2013;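 active means rising signal whose fitted curve reaches the 0.54 level within the top valid dose, showing a melting point, actives reach about 13 µM in these data; inactive means the rest, including activity in the opposite direction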; further: value is where the raw curve crosses a fixed level and not half-maximal
* marks the source's active call; other numbers are inactive results; i = inactive; ? = inconclusive; / = no result given; [ ] = remark or other dose.

SMILES	PglD inh	Yeast UUG start	ARNT TACC3 PPI	ERp5 inh	PDI turbidity	FGF22 binding-1	FGF22 binding-2	TSA no protein	others
O=C(N/N=C/c1c[nH]c2ccccc12)c1cccs1	-3	2	/	4	3	2.2*	/	i	FGF22 TSA DP=0
O=C(N/N=C/c1c[nH]c2ccccc12)c1ccccc1	-3	-4	3	1	-5	0	/	/
CCc1ccc2nc(N)sc2c1	/	/	4	2	4	2.4*	-0.067	i
CCc1ccc(NC(=O)c2ccc3nc(N)sc3c2)cc1	-1	-11	-2	/	-1	/	/	/
CN(C)CCN1C(=O)C2C3C=CC(C3)C2C1=O (centres undefined)	/	/	-13	-3	13	15*	-0.047	i
Cc1ccc(-c2cnc3c(c2)C(=O)N([C@H](C)CO)C[C@H](C)[C@H](CN(C)S(C)(=O)=O)O3)cc1	-4	/	2	0	/	0	/	/
CC(C)NC(=O)Nc1ccc2c(c1)C(=O)N([C@H](C)CO)C[C@H](C)[C@@H](CN(C)Cc1ccncc1)OCCCC[C@H](C)O2	3	/	-5	-1	/	0	/	/
Cc1ccc(S(=O)(=O)N(C)c2ccc(OCC(=O)Nc3ccc(S(C)(=O)=O)cc3)cc2)cc1	2	-10	/	2	-5	0	/	/
Cc1ccc(S(=O)(=O)N(C)c2ccc(OC(=O)COc3ccccc3)cc2)cc1	-1	-25	25	4	?	15*	0.1	i
CNC(=O)C[C@@H]1CC[C@H]2[C@@H](COc3ccc(NC(=O)Nc4c(C)noc4C)cc3C(=O)N2C)O1	1	-6	-4	/	/	0	/	/
CO[C@H]1CN(C)C(=O)c2ccc(NC(=O)Nc3ccc(C(F)(F)F)cc3)cc2OC[C@H](C)NC[C@@H]1C	/	/	/	/	/	-1	/	/
O=C(CC1NC(=O)NC1=O)Nc1ccc(Cl)cc1 (centres undefined)	-1	-7	-3	/	-5	/	/	/
O=C(CC1SC(=O)NC1=O)Nc1ccc(Cl)cc1 (centres undefined)	1	1	-2	1	0	6.2*	/	i
CCCCn1cnc2c(SCc3cccc(F)c3)nc(N)nc21	-6	-20	-10	7	0	23*	0.048	i
OC[C@H]1[C@H](c2ccc(C#Cc3ccccc3)cc2)[C@@H]2CN(CC3CCOCC3)CCCCN12	-2	-10	7	-2	/	0	/	/
O=C(NCC1CC1)c1onc(CSc2ccc(F)cc2)c1C(=O)NCC1CC1	4	-15	-15	3	-4	37*	-0.12	11µM*
CCCNC(=O)c1onc(CSc2ccc(F)cc2)c1C(=O)NCC1CC1	-2	-3	-8	2	-1	0	/	/
CC(C)C#Cc1ccc([C@H]2[C@@H](CO)N3C(=O)CN(C(=O)C4CCCCC4)C[C@@H]23)cc1	/	/	/	0	/	1.9*	0.24	i
CC(C)C#Cc1ccc([C@@H]2[C@@H](CO)N3C(=O)CN(C(=O)C4CCCCC4)C[C@@H]23)cc1	/	/	/	1	/	1.3*	0.22	i
O=C(N[C@@H]1CC[C@H](CC(=O)N2CCN(c3ccccc3)CC2)O[C@@H]1CO)c1ccccc1	1	5	-10	-5	/	1.9*	-0.057[42 µM]	i
O=C(N[C@@H]1CC[C@@H](CC(=O)N2CCN(c3ccccc3)CC2)O[C@H]1CO)c1ccccc1	-2	3	-7	-3	/	0	/	/
O=C(Nc1ccc(Br)cc1)C1CCCN1S(=O)(=O)c1cccs1 (centres undefined)	-12	4	4	/	3	/	/	/
CC(=O)c1cccc(NC(=O)C2CCCN2S(=O)(=O)c2cccs2)c1 (centres undefined)	1	-3	/	9	-4	17*	-0.082	i
CCCNC(=O)N1[C@@H]2CN(C(=O)c3ccccc3)c3ccccc3[C@@H]2[C@@H]1CO	2	6	-13	/	/	1.8*	0.23[42 µM]	i
CC(C)NC(=O)N1C[C@H]2[C@@H](c3ccccc31)[C@H](CO)N2C(=O)c1cccnc1	2	-4	-25	-3	/	1.3*	-0.023	i

Carrying on:
SMILES	PglD inh	Yeast UUG start	ARNT TACC3 PPI	ERp5 inh	PDI turbidity	FGF22 binding-1	FGF22 binding-2	TSA no protein	others
CC(C)NC(=O)N(C)C[C@@H]1Oc2cc(-c3cccnc3)ccc2S(=O)(=O)N([C@@H](C)CO)C[C@H]1C	-3	-7	-4	-5	/	/	/	/
COc1cccc(C#Cc2ccc([C@H]3[C@H](CO)N4C(=O)CN(S(=O)(=O)c5ccccc5C)C[C@@H]34)cc2)c1	/	/	/	-2	/	1	/	/
COc1cccc(C#Cc2ccc([C@H]3[C@H]4CN(S(=O)(=O)c5ccccc5C)CC(=O)N4[C@H]3CO)cc2)c1	/	/	/	-3	/	1.4*	-0.078	i
Cc1[nH]c2ccccc2c1N=Nc1cc(C(=O)O)cc(C(=O)O)c1	4	-11	0	1	9	1.5*	0.056	i
O=C(Cc1cccnc1)N1CC2(C1)[C@@H](c1ccccc1)[C@@H](CO)N2C(=O)C1CCCC1	/	/	/	-1	/	/	/	/
OC[C@H]1[C@@H](c2ccc(-c3cccnc3)cc2)[C@@H]2CN(Cc3ccccn3)CCCCN12	3	-29	17	-1	/	1.5*	0.023	i
OC[C@@H]1[C@@H](c2ccc(-c3cccnc3)cc2)[C@@H]2CN(Cc3ccccn3)CCCCN12	8	-40	7	1	/	1.5*	0.022	i
CS(=O)(=O)N1CCCCN2[C@H](CO)[C@H](c3ccc(C#Cc4ccccn4)cc3)[C@@H]2C1	9	28	1	2	/	1.5*	0.16[42 µM]	i
OC[C@@H]1[C@H](c2ccc(Br)cc2)[C@@H]2CN(Cc3cncnc3)CCCCN12	-2	1	3	1	/	2.4*	0.059[42 µM]	i

Reprinted at random: five entries already listed
SMILES	PglD inh	Yeast UUG start	ARNT TACC3 PPI	ERp5 inh	PDI turbidity	FGF22 binding-1	FGF22 binding-2	TSA no protein	others
O=C(Cc1cccnc1)N1CC2(C1)[C@@H](c1ccccc1)[C@@H](CO)N2C(=O)C1CCCC1	/	/	/	-1	/	/	/	/
COc1cccc(C#Cc2ccc([C@H]3[C@H](CO)N4C(=O)CN(S(=O)(=O)c5ccccc5C)C[C@@H]34)cc2)c1	/	/	/	-2	/	1	/	/
CS(=O)(=O)N1CCCCN2[C@H](CO)[C@H](c3ccc(C#Cc4ccccn4)cc3)[C@@H]2C1	9	28	1	2	/	1.5*	0.16[42 µM]	i
OC[C@@H]1[C@@H](c2ccc(-c3cccnc3)cc2)[C@@H]2CN(Cc3ccccn3)CCCCN12	8	-40	7	1	/	1.5*	0.022	i
COc1cccc(C#Cc2ccc([C@H]3[C@H]4CN(S(=O)(=O)c5ccccc5C)CC(=O)N4[C@H]3CO)cc2)c1	/	/	/	-3	/	1.4*	-0.078	i
